A word on the Ki: it is the dissociation constant of the complex between target and ligand, obtained from inhibition or displacement.

Protein sequences, listed by entry. Tags and fused reporters are not part of them.
UniProt P25103, whole entry: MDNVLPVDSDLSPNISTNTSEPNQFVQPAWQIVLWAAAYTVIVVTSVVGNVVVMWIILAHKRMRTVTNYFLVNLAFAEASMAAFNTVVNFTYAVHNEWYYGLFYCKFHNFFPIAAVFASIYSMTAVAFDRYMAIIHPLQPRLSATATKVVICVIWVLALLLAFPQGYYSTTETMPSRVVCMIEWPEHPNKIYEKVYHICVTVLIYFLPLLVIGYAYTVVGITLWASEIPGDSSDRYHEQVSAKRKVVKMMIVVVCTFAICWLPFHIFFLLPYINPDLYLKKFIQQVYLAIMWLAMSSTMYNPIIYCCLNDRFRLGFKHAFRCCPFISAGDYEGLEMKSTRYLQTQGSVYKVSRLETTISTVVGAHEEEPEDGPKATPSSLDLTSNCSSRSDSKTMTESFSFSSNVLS
UniProt P29371, whole entry: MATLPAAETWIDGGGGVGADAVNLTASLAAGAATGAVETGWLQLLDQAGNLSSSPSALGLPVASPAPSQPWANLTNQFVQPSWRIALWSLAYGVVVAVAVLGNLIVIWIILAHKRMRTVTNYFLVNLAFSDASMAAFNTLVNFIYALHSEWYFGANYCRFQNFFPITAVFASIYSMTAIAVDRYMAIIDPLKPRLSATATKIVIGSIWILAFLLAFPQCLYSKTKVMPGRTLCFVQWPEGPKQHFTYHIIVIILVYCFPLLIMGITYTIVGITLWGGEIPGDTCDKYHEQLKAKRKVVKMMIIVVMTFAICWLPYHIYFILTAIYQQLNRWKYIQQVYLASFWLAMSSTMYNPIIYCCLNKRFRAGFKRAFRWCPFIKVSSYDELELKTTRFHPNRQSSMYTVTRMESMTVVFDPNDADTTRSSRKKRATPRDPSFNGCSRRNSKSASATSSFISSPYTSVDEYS

For one assay, the target named is Substance-P receptor (Homo sapiens, UniProt P25103). The assay can be described thus: Binding affinity against recombinant human tachykinin receptor 1 in CHO cells using [3H]-Sar SP as radioligand. The format is cell-based.
For another assay, the target named is Neuromedin-K receptor (Homo sapiens, UniProt P29371). The assay can be described thus: Binding affinity against recombinant human tachykinin receptor 3 in CHO cells using [125I][MePhe]-NKB as radioligand. The format is cell-based.

Take `CO/N=C(\CN(C)C(=O)c1cc(Cl)cc(Cl)c1)[C@H](CCN1CCC(N2CCCN(CC(C)(C)O)C2=O)CC1)c1ccc(Cl)c(Cl)c1`: the Ki at Substance-P receptor and on Neuromedin-K receptor was 0.5 nM in each case.
